Source: ChEMBL document CHEMBL4184298, “Development of Potent Inhibitors of Receptor Tyrosine Kinases by Ligand-Based Drug Design and Target-Biased Phenotypic Screening” (J Med Chem, 2018)

Target: T1, Tyrosine-protein kinase Mer (Homo sapiens, UniProt Q12866)
T1 sequence (Q12866 whole entry): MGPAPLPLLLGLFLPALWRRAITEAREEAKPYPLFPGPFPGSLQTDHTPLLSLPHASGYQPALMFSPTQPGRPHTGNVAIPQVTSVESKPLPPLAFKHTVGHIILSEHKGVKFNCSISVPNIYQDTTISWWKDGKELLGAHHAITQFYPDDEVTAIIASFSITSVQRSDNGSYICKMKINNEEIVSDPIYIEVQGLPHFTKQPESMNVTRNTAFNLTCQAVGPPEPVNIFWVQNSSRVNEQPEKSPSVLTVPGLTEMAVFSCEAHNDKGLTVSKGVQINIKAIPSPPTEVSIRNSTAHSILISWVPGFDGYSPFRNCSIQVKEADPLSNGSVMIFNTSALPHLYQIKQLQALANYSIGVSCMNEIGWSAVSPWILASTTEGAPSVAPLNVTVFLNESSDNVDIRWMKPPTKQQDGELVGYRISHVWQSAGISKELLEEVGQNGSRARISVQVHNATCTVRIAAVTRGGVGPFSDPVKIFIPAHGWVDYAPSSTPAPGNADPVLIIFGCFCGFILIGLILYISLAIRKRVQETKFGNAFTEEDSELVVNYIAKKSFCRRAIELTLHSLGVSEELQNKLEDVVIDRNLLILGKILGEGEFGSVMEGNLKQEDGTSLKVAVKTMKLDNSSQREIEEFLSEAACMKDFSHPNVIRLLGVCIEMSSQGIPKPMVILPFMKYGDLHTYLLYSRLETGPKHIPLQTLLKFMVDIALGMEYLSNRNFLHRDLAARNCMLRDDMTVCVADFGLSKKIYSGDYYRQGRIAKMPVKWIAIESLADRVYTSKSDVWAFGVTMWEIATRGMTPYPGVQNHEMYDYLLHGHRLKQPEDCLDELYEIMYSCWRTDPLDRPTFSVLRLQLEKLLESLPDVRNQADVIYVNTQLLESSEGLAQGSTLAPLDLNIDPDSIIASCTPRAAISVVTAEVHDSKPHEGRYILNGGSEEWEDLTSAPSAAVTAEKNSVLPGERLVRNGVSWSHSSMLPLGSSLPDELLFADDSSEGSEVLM
Test: Inhibition of wild-type human partial length MER (R557 to L884 residues) expressed in bacterial expression system using poly [Glu, Try] 4:1 as substrate in presence of [gamma-33P]ATP
Summary of the method: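 Radiometric assay on recombinant kinase: ³³P incorporation into the kinase substrate was measured and activity was expressed relative to a DMSO control.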

With `Nc1nc(Nc2ccc3c(c2)CC[C@@H](N2CCCC2)CC3)nn1-c1cc2c(nn1)-c1ccccc1CCC2` [BEMCENTINIB] the IC50 was 15 nM.
